Test system: turf, or other plant materials
Settings: incorporated at relatively low levels in the formulation with a polymer of Formula I

## monophosphate of POE (6) decyl alcohol
  phytotoxicity: not causing the formulation to be phytotoxic
